Measurements as given in paper PMC10020421 (2023).

Sequences of proteins named here, by UniProt entry; tags and fusion partners are left off.
UniProt P08908, whole entry: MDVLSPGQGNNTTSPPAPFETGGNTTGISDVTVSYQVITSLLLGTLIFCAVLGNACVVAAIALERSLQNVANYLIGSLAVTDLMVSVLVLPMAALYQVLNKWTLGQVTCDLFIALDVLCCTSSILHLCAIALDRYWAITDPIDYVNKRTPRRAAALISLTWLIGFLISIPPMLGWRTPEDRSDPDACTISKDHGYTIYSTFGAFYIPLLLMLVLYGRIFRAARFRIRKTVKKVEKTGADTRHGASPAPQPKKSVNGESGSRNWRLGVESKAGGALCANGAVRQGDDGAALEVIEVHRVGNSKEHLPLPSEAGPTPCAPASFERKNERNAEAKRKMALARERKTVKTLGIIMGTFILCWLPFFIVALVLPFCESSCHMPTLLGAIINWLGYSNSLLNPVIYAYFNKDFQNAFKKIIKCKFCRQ

Target: myc-h5HT1a (Homo sapiens, UniProt P08908)
Test: CAMYEL BRET cAMP signalling assay, HEK cells expressing 5HT1a alone
Assay type: cell-based
Settings: 5HT1a cell line, drug alone

With `CCCN(CCC)C1CCc2cccc(O)c2C1` (stereo not shown) [8OH-DPAT, 8-hydroxy DPAT] the “Emax (% inhib of Fsk), ± SEM” value was 71.5 ± 3.6 % inhib of Fsk.
